A short description of test [1]: A CellTox Green Cytotoxicity Assay to monitor cytotoxicity in HepG2 cells - 16 hour (AID 1224876). Also: nearly all actives have a fitted effect of over 45% in size. Also: potency is read from the fitted curve at half-maximal effect. In a few lines:
(§1)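 Continuous culture of HepG2 cells with a membrane-impermeant DNA dye; rising fluorescence marks dead cells. Compound exposure lasted up to 40 h at 37 C, with reads every 8 h from 0 h.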

Test [2] in a line: qHTS RealTime-Glo MT Cell Viability Assay in HepG2 cells - 32 hour (AID 1224877). Also: nearly all actives have a fitted effect of over 55% in size. The following applies: RealTime-Glo luminescence. In a few lines:
(§2)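 HepG2 suspension premixed with RealTime-Glo reagents is plated at 600 cells per well and left 5 h at 37 C/5% CO2. Compounds in DMSO then go in, and bioluminescence reflecting viable cell number is recorded over 40 h.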

Test [3] can be described thus: qHTS RealTime-Glo MT Cell Viability Assay in HEK293 cells - 0 hour (AID 1224880). Also: top concentration of the series differs between compounds; nearly all actives have a fitted effect of over 45% in size. As to conditions: RealTime-Glo luminescence; at 76.8 µM (top of the series) unless noted. In a few lines: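 qHTS format; HEK293 cells with NanoLuc/prosubstrate reagent, 37 C/5% CO2 for 5 h pre-dosing; compounds 23 nL in DMSO; luminescence at each time point reflects viable cells.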
(Quantitative high-throughput screening tests each substance at several concentrations.)

Test [4] is described as follows: A CellTox Green Cytotoxicity Assay to monitor cytotoxicity in HepG2 cells - 0 hour (AID 1224882). Also: nearly all actives have a fitted effect of over 35% in size. Also: potency is read from the fitted curve at half-maximal effect. In short, it runs like this:
as §1

Test [5] can be described thus: qHTS RealTime-Glo MT Cell Viability Assay in HepG2 cells - 16 hour (AID 1224885). Also: nearly all actives have a fitted effect of over 50% in size. As to conditions: RealTime-Glo luminescence; at 76.8 µM (top of the series) unless noted. In short, it runs like this:
as §2

Test [6] can be described thus: A CellTox Green Cytotoxicity Assay to monitor cytotoxicity in HepG2 cells - 40 hour (AID 1224879). Also: nearly all actives have a fitted effect of over 40% in size. Also: potency is read from the fitted curve at half-maximal effect. In a few lines:
as §1

The nature of test [7]: A CellTox Green Cytotoxicity Assay to monitor cytotoxicity in HEK293 cells - 32 hour (AID 1224881). Also: nearly all actives have a fitted effect of over 40% in size. In short, it runs like this:
(§3)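 Each value comes from one timepoint of a single continuous run in which HEK293 cells with CellTox Green were exposed to compound for up to 40 h at 37 C, dye fluorescence rising with cell death.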

Test [8] in a line: A CellTox Green Cytotoxicity Assay to monitor cytotoxicity in HepG2 cells - 32 hour (AID 1224883). Also: nearly all actives have a fitted effect of over 50% in size. Also: potency is read from the fitted curve at half-maximal effect. In a few lines: as §1
The nature of test [9]: qHTS RealTime-Glo MT Cell Viability Assay in HEK293 cells - 24 hour (AID 1224886). Also: top concentration of the series differs between compounds; nearly all actives have a fitted effect of over 50% in size. As to conditions: RealTime-Glo luminescence. In a few lines:
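Reads taken at 0, 8, 16, 24, 32 and 40 h from the same wells. HEK293 cells (600/well) carried RealTime-Glo reagents from seeding, with compound added after a 5 h settle at 37 C.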

Test [10] can be described thus: A CellTox Green Cytotoxicity Assay to monitor cytotoxicity in HEK293 cells - 8 hour (AID 1224884). Also: nearly all actives have a fitted effect of over 35% in size. Also: potency is read from the fitted curve at half-maximal effect. In a few lines: as §3

Several values for one entry are separate records, joined by “and”; a condition that tells them apart may be missing. Equal entries are not always repeated. The list shows a part of the results, in another mix than the full data. Inconclusive results are not listed. The source holds several records for some structures; these can differ, active in one and inactive in another. Activity calls are given as the source filed them. Calls follow the shape of the dose curve; as a rule, active = well fitted curve in the direction sought with a large enough effect in the repeat runs; inconclusive = weak or mixed curves; inactive = no such curve, though single readings can be large; an effect the other way counts as inactive or inconclusive.
% is scaled to controls: 0 for no effect and ±100 for the full control effect.

For the compound `Cc1ccc([N+](=O)[O-])c([N+](=O)[O-])c1`, the Potency entry in [1] was “inactive and active: 19.5 µM”; in test [4], “inactive and active: 27.5 µM”. Also, the activity change, negative = cytotoxic in test [2] (at 76.8 µM (top of the series)) is inactive: -0.375% and inactive: -0.711%; in test [5], inactive: -1.96% and inactive: -6.84%. Further, the activity change, negative = cytotoxicity in test [3] was inactive: -2.9% and inactive: -2.26%.
With `[NH4+].[O-][Cl+3]([O-])([O-])[O-]`, the Potency entry in test [1], in [6], in test [7], in test [4] and in [8] was “inactive” each time. Also, the activity change, negative = cytotoxic in [2] (at 76.8 µM (top of the series)) was inactive: 0.666% and inactive: 4.13%; in test [5] it was inactive: 1.98% and inactive: 2.41%. The activity change, negative = cytotoxicity in test [3] was inactive: 1.4% and inactive: -2.28%; in test [9] (at 76.8 µM (top of the series)) it was inactive: -1.94% and inactive: 2.47%.
As to `Cc1cccc([N+](=O)[O-])c1[N+](=O)[O-]`, the Potency result in [1], in test [7], in test [4] and in [10] was “inactive” in each case. The activity change, negative = cytotoxic in [2] (at 35.3 µM (top of the series)) is inactive: -7.42%; in test [5], inactive: 3.49% [at 35.3 µM]. The Potency in [6] is active: 32.7 µM; in test [8], active: 29.2 µM.
With `Cc1c([N+](=O)[O-])cccc1[N+](=O)[O-]`, the Potency result in test [1], in [6], in [7], in test [4], in [8] and in test [10] was “inactive” in each case. Besides, the activity change, negative = cytotoxic was inactive: 2.13% and inactive: 3.46% in test [2] (at 76.8 µM (top of the series)); inactive: 0.162% and inactive: 2.15% in test [5]. For the same compound, the activity change, negative = cytotoxicity in [3] was inactive: -0.0348% and inactive: 19%.
In the case of `COc1ccc([N+](=O)[O-])cc1[N+](=O)[O-]`, the Potency entry in [1], in [6], in [7], in test [4], in test [8] and in [10] was “inactive” each time. For the same compound, the activity change, negative = cytotoxic in test [2] (at 76.8 µM (top of the series)) is inactive: -2.22%; in test [5], inactive: -15.4%. The figures for the activity change, negative = cytotoxicity in test [3] and in test [9] (at 76.8 µM (top of the series)) were inactive: 13.4% and inactive: 0.744%, respectively.
With `CC(C)N(CCO)C(C)C`, the Potency entry in test [1], in [6], in test [7], in test [4], in [8] and in test [10] was “inactive” each time. The activity change, negative = cytotoxic in test [2] (at 76.8 µM (top of the series)) was inactive: -5.16%; in [5], inactive: -8.48%. Also, the activity change, negative = cytotoxicity in test [3] was inactive: -2.83%; in [9] (at 76.8 µM (top of the series)), inactive: -0.0451%.
For `Nc1cc([N+](=O)[O-])cc([N+](=O)[O-])c1O`, the Potency entry in test [1], in test [6], in test [7], in test [4], in test [8] and in test [10] was “inactive” each time. Besides, the activity change, negative = cytotoxic in test [2] (at 76.8 µM (top of the series)) and in test [5] was inactive: -10.3% throughout. For the same compound, the activity change, negative = cytotoxicity in test [3] was inactive: 2.68%.
`N#CBr`: the Potency entry in [1], in test [6], in test [7], in test [4], in [8] and in test [10] was “inactive” throughout. Further, the activity change, negative = cytotoxic was inactive: 9.62% in test [2] (at 76.8 µM (top of the series)) and inactive: -3.13% in [5]. Also, the activity change, negative = cytotoxicity in test [3] was inactive: 10.3%; in [9] (at 76.8 µM (top of the series)), inactive: 10.8%.
Take `CP(=O)(O)OCCC[Si](O)(O)O`: the Potency result in test [1], in test [6], in test [7], in test [4], in test [8] and in test [10] was “inactive” in each case. In addition, the values for the activity change, negative = cytotoxic in [2] (at 76.8 µM (top of the series)) and in [5] were inactive: 1.16% and inactive: 3.05%, respectively. Moreover, the activity change, negative = cytotoxicity in test [3] is inactive: -4.35%; in test [9] (at 76.8 µM (top of the series)) it was inactive: -3.41%.
Turning to `O=[N+]([O-])c1cccc([N+](=O)[O-])c1`, the activity change, negative = cytotoxic in [2] (at 76.8 µM (top of the series)) was inactive: 10.5%; in [5], inactive: -0.271%. In addition, the Potency in test [6] is active: 22.8 µM; in test [4] it was active: 45.5 µM; in [8] it was active: 22.8 µM; in test [10] it was active: 45.5 µM.
As for `C/C1=C2N=C(/C=C3N=C(/C(C)=C4\[N-][C@@](C)([C@@H]5N=C1[C@](C)(CCC(=O)NC[C@@H](C)OP(=O)([O-])O[C@H]1[C@@H](O)[C@@H](n6cnc7cc(C)c(C)cc76)O[C@@H]1CO)[C@H]5CC(N)=O)[C@@](C)(CC(N)=O)[C@@H]4CCC(N)=O)[C@@](C)(CC(N)=O)[C@@H]\3CCC(N)=O)C(C)(C)[C@@H]/2CCC(N)=O.[C-]#N.[Co+3]`, the Potency entry in test [1], in test [6], in test [7], in [4], in test [8] and in [10] was “inactive” throughout. Moreover, the activity change, negative = cytotoxic in test [2] (at 35.3 µM (top of the series)) is inactive: -3.7%; in test [5] it was inactive: -4.97% [at 35.3 µM]. Besides, the activity change, negative = cytotoxicity in [3] is inactive: -12.3% [at 35.3 µM]; in [9] (at 35.3 µM (top of the series)) it was inactive: -9.48%.

The values are drawn from PubChem BioAssay (Tox21).
